Values of other authors in PMC3401594 (International Journal of Pharmaceutics, 2009).

By UniProt entry, the sequences of proteins in these tests, tags left out.
UniProt P08183, whole entry: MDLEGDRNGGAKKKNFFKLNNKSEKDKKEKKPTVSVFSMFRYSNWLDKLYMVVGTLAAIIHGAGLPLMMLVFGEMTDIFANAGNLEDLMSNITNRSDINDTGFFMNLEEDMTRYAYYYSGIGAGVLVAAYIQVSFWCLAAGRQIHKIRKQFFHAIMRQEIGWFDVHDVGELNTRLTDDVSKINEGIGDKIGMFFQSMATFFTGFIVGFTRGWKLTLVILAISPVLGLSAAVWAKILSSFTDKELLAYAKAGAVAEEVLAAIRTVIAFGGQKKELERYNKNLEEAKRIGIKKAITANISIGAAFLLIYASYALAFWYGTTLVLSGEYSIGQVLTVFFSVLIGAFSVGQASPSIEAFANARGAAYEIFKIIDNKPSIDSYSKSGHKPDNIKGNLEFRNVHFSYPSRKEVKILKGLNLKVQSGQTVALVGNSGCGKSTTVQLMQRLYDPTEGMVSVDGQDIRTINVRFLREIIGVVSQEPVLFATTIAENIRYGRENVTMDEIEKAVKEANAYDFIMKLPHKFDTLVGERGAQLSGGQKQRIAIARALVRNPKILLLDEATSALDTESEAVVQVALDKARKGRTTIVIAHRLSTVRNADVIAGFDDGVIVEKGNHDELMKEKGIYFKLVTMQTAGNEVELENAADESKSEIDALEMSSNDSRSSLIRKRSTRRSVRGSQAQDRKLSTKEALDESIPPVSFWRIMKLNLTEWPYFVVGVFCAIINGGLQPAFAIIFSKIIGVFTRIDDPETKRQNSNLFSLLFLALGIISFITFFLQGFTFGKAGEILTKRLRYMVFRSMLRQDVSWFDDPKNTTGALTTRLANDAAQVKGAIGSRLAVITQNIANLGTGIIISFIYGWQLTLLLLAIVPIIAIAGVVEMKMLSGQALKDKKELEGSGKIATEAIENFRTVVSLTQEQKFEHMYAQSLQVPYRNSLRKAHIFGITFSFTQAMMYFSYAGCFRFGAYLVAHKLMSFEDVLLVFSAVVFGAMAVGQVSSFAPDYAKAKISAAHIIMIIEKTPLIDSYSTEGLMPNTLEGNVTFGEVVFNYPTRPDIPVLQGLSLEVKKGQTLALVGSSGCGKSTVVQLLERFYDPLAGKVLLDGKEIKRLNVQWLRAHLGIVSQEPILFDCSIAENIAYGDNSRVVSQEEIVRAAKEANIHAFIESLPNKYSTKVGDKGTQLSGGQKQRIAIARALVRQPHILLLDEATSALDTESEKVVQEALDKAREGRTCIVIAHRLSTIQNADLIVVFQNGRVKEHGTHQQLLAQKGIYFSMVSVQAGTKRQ

Target: recombinant human P-gp (Homo sapiens, UniProt P08183)
Conditions: cited from earlier work

## buprenorphine
  Fold stimulation of P-gp ATPase activity: ~ 1 fold
